Amino acid sequences for entries named in this document (tags omitted). Residues count along the entry.
UniProt Q15349, whole entry, stated change not applied: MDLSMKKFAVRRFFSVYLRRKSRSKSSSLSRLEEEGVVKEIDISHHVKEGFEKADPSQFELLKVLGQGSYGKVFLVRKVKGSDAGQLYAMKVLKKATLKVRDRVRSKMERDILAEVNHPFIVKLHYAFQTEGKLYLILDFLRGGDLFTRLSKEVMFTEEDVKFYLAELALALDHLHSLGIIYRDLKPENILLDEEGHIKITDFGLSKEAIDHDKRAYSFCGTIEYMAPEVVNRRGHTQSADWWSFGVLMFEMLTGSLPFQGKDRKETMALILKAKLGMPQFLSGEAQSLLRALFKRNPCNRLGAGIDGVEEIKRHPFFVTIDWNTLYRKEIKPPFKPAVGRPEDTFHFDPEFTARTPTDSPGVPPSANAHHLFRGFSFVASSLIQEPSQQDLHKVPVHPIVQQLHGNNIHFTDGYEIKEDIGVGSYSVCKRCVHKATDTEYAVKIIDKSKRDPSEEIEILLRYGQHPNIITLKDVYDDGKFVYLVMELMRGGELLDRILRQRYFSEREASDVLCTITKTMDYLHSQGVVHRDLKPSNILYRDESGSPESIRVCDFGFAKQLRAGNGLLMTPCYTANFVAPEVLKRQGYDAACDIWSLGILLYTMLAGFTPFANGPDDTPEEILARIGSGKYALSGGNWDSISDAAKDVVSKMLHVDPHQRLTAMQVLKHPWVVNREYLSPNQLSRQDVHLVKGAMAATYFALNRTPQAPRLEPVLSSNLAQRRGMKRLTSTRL
UniProt Q06418, 41-890, stated change not applied: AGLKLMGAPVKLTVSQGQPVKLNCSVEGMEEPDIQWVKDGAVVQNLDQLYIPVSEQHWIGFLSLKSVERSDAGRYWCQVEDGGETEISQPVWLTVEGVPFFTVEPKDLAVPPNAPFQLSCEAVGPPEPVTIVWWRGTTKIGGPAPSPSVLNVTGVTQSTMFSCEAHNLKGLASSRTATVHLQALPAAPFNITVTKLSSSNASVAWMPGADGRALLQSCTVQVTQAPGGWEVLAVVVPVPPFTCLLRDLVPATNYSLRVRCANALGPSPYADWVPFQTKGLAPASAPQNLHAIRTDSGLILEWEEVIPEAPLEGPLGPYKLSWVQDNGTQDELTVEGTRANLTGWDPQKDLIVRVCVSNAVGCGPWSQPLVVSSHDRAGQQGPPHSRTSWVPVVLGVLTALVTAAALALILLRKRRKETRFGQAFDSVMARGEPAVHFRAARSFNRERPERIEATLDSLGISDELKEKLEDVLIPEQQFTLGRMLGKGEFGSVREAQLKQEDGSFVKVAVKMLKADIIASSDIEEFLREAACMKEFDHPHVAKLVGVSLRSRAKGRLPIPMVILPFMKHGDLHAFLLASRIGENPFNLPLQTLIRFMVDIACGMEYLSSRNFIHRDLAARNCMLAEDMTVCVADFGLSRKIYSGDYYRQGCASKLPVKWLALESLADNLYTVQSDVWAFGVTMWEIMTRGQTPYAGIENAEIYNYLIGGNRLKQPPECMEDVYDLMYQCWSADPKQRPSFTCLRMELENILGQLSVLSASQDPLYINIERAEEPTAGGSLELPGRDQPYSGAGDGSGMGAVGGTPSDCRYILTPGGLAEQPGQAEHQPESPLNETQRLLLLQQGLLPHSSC
UniProt Q16832, 22-855, stated change not applied: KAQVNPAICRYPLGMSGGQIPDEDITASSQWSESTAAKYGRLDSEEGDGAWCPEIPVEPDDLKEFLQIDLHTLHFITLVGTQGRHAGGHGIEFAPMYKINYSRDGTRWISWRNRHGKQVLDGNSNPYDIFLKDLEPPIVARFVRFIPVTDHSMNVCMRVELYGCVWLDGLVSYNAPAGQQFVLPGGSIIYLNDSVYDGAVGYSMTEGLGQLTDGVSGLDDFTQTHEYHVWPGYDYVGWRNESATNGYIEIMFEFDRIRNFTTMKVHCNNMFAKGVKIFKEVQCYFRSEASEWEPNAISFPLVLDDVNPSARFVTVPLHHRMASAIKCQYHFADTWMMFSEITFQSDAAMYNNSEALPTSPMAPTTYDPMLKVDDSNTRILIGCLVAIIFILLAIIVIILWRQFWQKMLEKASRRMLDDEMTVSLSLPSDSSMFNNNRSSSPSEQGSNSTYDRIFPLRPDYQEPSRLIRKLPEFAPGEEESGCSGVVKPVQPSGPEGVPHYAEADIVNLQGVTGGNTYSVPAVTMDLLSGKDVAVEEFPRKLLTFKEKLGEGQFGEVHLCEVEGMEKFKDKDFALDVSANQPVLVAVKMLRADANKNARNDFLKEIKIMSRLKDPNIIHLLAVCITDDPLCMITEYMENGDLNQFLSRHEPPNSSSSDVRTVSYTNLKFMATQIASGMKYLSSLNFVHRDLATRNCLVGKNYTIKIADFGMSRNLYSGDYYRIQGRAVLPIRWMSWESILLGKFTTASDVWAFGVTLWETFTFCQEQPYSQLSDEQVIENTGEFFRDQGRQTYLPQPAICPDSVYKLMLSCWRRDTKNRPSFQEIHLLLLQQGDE
UniProt P07948, whole entry, stated change not applied: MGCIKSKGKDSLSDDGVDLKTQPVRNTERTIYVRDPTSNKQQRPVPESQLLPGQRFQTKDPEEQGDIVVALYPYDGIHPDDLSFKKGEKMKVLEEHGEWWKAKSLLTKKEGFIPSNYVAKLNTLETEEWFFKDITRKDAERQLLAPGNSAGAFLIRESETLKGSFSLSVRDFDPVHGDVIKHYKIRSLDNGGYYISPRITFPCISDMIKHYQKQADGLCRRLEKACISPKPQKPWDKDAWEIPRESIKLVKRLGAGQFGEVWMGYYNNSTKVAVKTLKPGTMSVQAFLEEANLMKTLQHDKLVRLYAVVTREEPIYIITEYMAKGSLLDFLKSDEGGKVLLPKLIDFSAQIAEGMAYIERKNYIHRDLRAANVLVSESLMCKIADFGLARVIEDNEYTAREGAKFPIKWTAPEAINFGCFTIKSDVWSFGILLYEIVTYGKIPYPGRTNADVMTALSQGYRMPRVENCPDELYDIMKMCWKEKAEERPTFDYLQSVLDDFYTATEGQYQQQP
UniProt Q15208, whole entry, stated change not applied: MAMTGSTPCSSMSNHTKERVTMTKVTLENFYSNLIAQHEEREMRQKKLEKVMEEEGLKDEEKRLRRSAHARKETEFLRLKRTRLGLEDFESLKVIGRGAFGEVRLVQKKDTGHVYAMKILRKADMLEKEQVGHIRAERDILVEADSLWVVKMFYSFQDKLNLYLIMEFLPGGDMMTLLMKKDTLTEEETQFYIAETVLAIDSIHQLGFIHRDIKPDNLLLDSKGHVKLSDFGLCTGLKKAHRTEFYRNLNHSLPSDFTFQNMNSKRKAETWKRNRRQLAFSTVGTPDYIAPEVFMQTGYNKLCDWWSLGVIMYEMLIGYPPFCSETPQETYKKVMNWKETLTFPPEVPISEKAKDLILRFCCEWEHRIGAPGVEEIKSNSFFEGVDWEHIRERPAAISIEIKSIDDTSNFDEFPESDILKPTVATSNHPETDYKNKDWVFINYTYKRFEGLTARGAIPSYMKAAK
UniProt P04629, 33-796, stated change not applied: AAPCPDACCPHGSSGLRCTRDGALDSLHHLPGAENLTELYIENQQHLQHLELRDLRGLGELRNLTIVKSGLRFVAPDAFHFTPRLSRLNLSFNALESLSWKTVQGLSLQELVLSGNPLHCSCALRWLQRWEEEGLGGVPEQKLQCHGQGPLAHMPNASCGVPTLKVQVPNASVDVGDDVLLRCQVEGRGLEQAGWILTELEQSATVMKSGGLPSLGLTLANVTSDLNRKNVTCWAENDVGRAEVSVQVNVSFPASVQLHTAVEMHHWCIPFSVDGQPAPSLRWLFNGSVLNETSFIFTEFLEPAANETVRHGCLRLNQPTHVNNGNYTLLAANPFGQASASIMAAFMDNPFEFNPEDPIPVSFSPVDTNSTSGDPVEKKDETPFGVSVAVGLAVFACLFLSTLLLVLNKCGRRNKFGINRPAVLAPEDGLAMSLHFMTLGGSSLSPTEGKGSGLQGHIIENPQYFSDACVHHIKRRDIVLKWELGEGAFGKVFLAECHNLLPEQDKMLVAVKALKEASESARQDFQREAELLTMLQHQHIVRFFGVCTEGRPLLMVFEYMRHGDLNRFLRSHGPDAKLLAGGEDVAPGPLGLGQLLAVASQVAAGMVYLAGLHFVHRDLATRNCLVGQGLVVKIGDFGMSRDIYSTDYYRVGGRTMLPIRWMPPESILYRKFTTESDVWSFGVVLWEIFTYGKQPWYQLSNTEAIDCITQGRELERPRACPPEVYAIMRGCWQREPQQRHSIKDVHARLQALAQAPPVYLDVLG
UniProt P00519, whole entry, stated change not applied: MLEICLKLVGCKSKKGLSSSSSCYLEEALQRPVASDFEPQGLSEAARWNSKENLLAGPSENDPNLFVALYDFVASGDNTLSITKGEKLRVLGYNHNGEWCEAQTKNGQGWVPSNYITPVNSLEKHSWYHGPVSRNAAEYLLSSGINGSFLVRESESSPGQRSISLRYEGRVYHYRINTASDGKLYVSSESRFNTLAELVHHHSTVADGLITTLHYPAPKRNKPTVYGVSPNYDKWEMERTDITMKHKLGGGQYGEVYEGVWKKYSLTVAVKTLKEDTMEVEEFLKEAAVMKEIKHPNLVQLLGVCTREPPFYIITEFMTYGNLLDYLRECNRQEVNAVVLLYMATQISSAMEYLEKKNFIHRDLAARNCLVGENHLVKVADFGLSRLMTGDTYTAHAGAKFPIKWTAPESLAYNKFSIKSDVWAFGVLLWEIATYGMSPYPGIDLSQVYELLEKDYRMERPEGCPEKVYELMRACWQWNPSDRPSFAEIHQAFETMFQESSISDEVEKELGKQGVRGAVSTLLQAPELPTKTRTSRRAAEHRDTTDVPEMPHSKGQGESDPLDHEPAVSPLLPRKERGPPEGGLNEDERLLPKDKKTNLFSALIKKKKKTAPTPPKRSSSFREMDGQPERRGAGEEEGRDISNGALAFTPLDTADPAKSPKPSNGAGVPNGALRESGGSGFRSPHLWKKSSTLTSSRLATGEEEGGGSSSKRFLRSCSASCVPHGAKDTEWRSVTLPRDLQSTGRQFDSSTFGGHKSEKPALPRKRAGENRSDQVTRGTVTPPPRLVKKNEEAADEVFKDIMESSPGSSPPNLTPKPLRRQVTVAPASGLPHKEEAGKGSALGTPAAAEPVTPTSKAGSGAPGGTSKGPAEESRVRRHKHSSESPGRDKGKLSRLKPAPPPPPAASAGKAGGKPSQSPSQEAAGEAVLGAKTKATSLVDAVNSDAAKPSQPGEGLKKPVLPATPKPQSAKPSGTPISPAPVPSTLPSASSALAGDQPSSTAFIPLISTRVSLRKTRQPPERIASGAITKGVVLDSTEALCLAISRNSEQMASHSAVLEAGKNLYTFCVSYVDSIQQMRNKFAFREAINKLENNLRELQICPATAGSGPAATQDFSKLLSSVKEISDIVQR
UniProt P05771, whole entry, stated change not applied: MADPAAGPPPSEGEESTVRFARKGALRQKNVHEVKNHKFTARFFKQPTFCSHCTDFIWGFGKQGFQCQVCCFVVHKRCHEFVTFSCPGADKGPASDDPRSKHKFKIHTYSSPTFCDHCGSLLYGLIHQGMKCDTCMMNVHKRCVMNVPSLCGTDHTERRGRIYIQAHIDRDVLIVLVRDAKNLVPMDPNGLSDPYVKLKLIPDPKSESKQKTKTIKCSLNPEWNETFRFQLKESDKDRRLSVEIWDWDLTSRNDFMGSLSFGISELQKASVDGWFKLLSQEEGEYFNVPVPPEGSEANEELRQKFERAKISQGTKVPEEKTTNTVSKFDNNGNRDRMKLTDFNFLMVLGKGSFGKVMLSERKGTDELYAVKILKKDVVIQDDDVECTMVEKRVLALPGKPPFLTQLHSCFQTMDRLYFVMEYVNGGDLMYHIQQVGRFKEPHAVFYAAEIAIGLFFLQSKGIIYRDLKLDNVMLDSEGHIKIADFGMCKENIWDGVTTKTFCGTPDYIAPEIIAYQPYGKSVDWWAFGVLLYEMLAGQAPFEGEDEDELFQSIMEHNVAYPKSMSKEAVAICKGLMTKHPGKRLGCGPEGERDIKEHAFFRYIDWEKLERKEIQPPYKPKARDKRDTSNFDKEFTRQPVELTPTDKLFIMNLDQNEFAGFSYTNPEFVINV
UniProt Q9H093, whole entry, stated change not applied: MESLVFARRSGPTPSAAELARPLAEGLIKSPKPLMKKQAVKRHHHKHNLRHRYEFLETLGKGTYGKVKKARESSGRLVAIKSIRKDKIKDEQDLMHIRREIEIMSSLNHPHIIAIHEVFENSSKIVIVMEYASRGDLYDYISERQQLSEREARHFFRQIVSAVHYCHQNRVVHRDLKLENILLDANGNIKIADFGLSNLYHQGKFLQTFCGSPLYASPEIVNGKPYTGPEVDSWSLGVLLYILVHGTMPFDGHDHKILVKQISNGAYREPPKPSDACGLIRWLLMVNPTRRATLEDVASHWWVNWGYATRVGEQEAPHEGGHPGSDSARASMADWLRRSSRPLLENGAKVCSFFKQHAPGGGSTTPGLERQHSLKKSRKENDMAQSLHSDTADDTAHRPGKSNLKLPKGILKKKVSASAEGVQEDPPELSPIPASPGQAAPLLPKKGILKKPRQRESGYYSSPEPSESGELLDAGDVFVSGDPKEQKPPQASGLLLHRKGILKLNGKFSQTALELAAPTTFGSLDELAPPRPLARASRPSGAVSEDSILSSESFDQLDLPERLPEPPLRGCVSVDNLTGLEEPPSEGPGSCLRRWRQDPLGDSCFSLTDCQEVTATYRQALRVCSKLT

According to paper PMC3961306, “Comparison of the Cancer Gene Targeting and Biochemical Selectivities of All Targeted Kinase Inhibitors Approved for Clinical Use” (PLoS ONE, 2014):

Legend:
Experiment in all cases: Kinase profiling in a biochemical assay panel (mobility shift assays and ELISA), %-inhibition at 1 μM; selectivity entropy
[1] = molecular target: panel of more than 300 wild-type and mutant kinases (313 kinase panel) (Homo sapiens, UniProt Q15349)
[2] = molecular target: panel of more than 300 wild-type and mutant kinases (313 kinase panel) (Homo sapiens, UniProt Q06418); details: 1 µM
[3] = molecular target: panel of more than 300 wild-type and mutant kinases (313 kinase panel) (Homo sapiens, UniProt P09619); details: 1 µM
[4] = molecular target: panel of more than 300 wild-type and mutant kinases (313 kinase panel) (Homo sapiens, UniProt O00444); details: 1 µM
[5] = molecular target: panel of more than 300 wild-type and mutant kinases (313 kinase panel) (Homo sapiens, UniProt P51451); details: 1 µM
[6] = molecular target: panel of more than 300 wild-type and mutant kinases (313 kinase panel) (Homo sapiens, UniProt Q16832); details: 1 µM
[7] = molecular target: panel of more than 300 wild-type and mutant kinases (313 kinase panel) (Homo sapiens, UniProt O00418); details: 1 µM
[8] = molecular target: panel of more than 300 wild-type and mutant kinases (313 kinase panel) (Homo sapiens, UniProt P07948); details: 1 µM
[9] = molecular target: panel of more than 300 wild-type and mutant kinases (313 kinase panel) (Homo sapiens, UniProt Q96KB5); details: 1 µM
[10] = molecular target: panel of more than 300 wild-type and mutant kinases (313 kinase panel) (Homo sapiens, UniProt P21709); details: 1 µM
[11] = molecular target: panel of more than 300 wild-type and mutant kinases (313 kinase panel) (Homo sapiens, UniProt P15056); details: 1 µM
[12] = molecular target: panel of more than 300 wild-type and mutant kinases (313 kinase panel) (Homo sapiens, UniProt P08922); details: 1 µM
[13] = molecular target: panel of more than 300 wild-type and mutant kinases (313 kinase panel) (Homo sapiens, UniProt Q15208); details: 1 µM
[14] = molecular target: panel of more than 300 wild-type and mutant kinases (313 kinase panel) (Homo sapiens, UniProt P04629); details: 1 µM
[15] = molecular target: panel of more than 300 wild-type and mutant kinases (313 kinase panel) (Homo sapiens, UniProt Q96PF2); details: 1 µM
[16] = molecular target: panel of more than 300 wild-type and mutant kinases (313 kinase panel) (Homo sapiens, UniProt P51812); details: 1 µM
[17] = molecular target: panel of more than 300 wild-type and mutant kinases (313 kinase panel) (Homo sapiens, UniProt P00519); details: 1 µM
[18] = molecular target: panel of more than 300 wild-type and mutant kinases (313 kinase panel) (Homo sapiens, UniProt P42681); details: 1 µM
[19] = molecular target: panel of more than 300 wild-type and mutant kinases (313 kinase panel) (Homo sapiens, UniProt P05771); details: 1 µM
[20] = molecular target: panel of more than 300 wild-type and mutant kinases (313 kinase panel) (Homo sapiens, UniProt Q15303); details: 1 µM
[21] = molecular target: panel of more than 300 wild-type and mutant kinases (313 kinase panel) (Homo sapiens, UniProt Q9UM73); details: 1 µM
[22] = molecular target: panel of more than 300 wild-type and mutant kinases (313 kinase panel) (Homo sapiens, UniProt Q9H093); details: 1 µM
[23] = molecular target: panel of more than 300 wild-type and mutant kinases (313 kinase panel) (Homo sapiens, UniProt Q9P289); details: 1 µM

## CNC(=O)c1ccccc1Sc1ccc2c(/C=C/c3ccccn3)n[nH]c2c1 [axitinib]
[1]; kinase RSK3, 1 μM
  %-inhibition of RSK3: 56%

## COc1cc2ncnc(Nc3ccc(F)c(Cl)c3)c2cc1OCCCN1CCOCC1 [gefitinib]
[2]
  %-inhibition of TYRO3: 26%
[3]
  %-inhibition of PDGFRβ: 57%
[4]
  %-inhibition of PLK4: 7%
[5]
  %-inhibition, BLK: 43%

## C[C@@H]1CCN(C(=O)CC#N)C[C@@H]1N(C)c1ncnc2[nH]ccc12 [tofacitinib]
[6]
  %-inhibition of DDR2: -0.706%
[7]
  %-inhibition of EEF2K: -4.3%
[8]
  %-inhibition of LYNa: 12%
[9]
  %-inhibition of PBK: -12%
[2]
  %-inhibition of TYRO3: 0.492%
[10]
  %-inhibition of EPHA1: -11%
[11]
  %-inhibition, BRAF: 6.51%
[12]
  %-inhibition of ROS: 4%
[13]
  %-inhibition of NDR1: 22%
[14]
  %-inhibition of TRKA: 13%
[15]
  %-inhibition of TSSK2: -10%
[16]
  %-inhibition of RSK2: 2.57%
[17]
  %-inhibition, ABL: -1.44%
[18]
  %-inhibition of TXK: -1.78%
[19]
  %-inhibition of PKCβ1: 7%
[1]; 1 µM
  %-inhibition of RSK3: 9%
[20]
  %-inhibition of HER4: 7%
[21]
  %-inhibition, ALK: 0.874%
[22]
  %-inhibition of NuaK2: 57%
[23]
  %-inhibition of MST4: -2.22%
